Data on one compound can be found in patent US8440725B2, “Synergistic preparations based on mixtures of glycerol ether with aromatic alcohol for controlling mycobacteria” (Air Liquide Sante (International), priority 2002, dated 2013).

Each structure is given as a SMILES string.

The conditions of this series: room temperature.

Turning to `CCCCC(CC)COCC(O)CO` (stereo not shown) [SC 50, 1-(2-ethylhexyl) glycerol ether], the soluble in water entry is “up to 0.1 % by weight”.
